Test results as given in patent US8293736B2, “Purine compounds selective for PI3K P110 delta, and methods of use” (F. Hoffmann la Roche AG, priority 2010, dated 2012).

By UniProt entry, the sequences of proteins in these tests, tags left out. Where a name states a change or a piece, a line headed by the entry shows the natural chain unless it says otherwise.
UniProt O00329: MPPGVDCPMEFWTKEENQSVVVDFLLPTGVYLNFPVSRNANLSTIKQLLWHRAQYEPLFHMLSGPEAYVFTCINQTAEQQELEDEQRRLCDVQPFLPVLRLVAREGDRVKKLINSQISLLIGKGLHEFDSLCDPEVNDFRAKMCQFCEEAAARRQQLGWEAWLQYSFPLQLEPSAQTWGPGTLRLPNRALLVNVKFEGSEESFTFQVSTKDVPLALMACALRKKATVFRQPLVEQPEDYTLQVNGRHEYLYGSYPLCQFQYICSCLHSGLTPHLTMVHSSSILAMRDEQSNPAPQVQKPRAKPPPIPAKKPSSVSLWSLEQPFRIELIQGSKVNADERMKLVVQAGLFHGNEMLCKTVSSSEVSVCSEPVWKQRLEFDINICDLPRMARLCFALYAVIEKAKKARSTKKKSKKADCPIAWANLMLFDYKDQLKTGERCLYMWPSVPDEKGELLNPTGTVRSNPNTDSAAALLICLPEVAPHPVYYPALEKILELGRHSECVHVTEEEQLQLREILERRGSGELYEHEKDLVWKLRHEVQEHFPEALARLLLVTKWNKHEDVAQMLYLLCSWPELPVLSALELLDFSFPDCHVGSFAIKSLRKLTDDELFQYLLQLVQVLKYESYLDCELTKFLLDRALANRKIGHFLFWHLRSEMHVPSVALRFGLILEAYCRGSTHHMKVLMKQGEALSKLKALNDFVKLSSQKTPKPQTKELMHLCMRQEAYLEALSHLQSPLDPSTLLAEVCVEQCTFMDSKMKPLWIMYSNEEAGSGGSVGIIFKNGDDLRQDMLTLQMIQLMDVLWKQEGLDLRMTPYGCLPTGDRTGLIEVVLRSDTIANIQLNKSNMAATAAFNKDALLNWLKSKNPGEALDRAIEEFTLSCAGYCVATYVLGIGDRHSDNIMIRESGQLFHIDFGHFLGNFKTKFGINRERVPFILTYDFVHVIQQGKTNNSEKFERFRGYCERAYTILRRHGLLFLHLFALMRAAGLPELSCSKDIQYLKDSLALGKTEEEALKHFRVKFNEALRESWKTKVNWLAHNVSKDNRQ
UniProt P42336, whole entry, species assumed: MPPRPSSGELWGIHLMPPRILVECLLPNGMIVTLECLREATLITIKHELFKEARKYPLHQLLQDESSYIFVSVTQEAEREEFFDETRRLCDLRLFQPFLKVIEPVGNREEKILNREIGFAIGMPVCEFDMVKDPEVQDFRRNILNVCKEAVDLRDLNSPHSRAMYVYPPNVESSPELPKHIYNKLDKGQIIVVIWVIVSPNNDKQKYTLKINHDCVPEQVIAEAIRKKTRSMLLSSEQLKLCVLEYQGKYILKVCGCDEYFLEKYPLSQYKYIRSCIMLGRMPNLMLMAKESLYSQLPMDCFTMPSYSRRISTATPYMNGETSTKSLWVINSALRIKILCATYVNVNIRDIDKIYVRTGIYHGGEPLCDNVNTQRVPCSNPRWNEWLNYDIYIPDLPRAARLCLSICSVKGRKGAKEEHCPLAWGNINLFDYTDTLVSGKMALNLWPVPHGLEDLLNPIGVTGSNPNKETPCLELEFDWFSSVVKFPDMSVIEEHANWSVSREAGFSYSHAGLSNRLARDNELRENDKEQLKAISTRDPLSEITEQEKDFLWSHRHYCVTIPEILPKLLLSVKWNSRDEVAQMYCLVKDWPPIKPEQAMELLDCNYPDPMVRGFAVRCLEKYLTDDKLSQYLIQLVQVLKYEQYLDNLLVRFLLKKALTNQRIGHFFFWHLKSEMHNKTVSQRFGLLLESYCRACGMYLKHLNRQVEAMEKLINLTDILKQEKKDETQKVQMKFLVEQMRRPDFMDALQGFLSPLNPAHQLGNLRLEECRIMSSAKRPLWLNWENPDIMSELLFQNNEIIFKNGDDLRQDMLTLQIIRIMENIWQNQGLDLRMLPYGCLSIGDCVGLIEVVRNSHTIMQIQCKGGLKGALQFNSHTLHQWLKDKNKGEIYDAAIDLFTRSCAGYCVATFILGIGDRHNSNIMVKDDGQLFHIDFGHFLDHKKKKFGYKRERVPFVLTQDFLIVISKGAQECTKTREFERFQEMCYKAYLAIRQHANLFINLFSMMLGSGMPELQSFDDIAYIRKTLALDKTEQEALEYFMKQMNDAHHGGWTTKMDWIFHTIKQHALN

What was measured:
p110 delta = target: T1, p110 delta (Homo sapiens, UniProt O00329); experiment: PI3K isoform inhibition assay (fluorescence polarization), p110 delta; format: biochemical; settings: Ki apparent, Morrison equation; 25 μM ATP, 10 μM PIP2
T1 construct: purchased Upstate Group, Millipore; Dundee, UK
Experimental: (§1) Determination of the activity of PI3 kinase activity of Formula I compounds is possible by a number of direct and indirect detection methods.
(§2) PI3K enzymatic activity was assayed by measuring the amount of product phosphatidylinositol 3,4,5-phosphate (PIP3) formed from substrate 4,5 phosphatidylinositol 4,5-phosphate (PIP2) using a fluorescence polarization displacement assay. The decrease in fluorescence polarization of a fluorescent PIP3 probe is measured as it is displaced from a PIP3-binding protein GRP-1 detector by PI3K-catalyzed product. […] The kinase reactions were initiated by the addition of 40 ng/mL p110α/p85α, 300 ng/mL p110β/p85α, 40 ng/mL p110γ, or 40 ng/mL p110δ/p85α (Upstate Group, Millipore; Dundee, UK), and 10 μM PIP2 (Echelon Biosciences) to the wells. […] After 60 minutes of incubation at room temperature to allow equilibration of labeled and unlabeled PIP3 binding, the parallel and perpendicular components of the fluorescence emissions from each sample were measured at an excitation wavelength of 530 nm and an emission wavelength of 590 nm using an Envision fluorescent plate reader with a rhodamine filter (PerkinElmer Life and Analytical Sciences; Wellesley, Mass.). […]
The Formula I compound was serially diluted in 100% DMSO. […] IC50 values were subsequently determined using sigmoidal dose-response curve fit (variable slope). […]

p110 alpha = target: T2, p110 alpha (Homo sapiens, UniProt P42336); experiment: PI3K isoform inhibition assay (fluorescence polarization), p110 alpha; format: biochemical; settings: delta/alpha selectivity ratio
T2 construct: purchased Upstate Group, Millipore; Dundee, UK
Experimental: as §1
as §2, with “Mass.). The assay is capable of detecting 0.1-2.0 μM PIP3 product.” for “Mass.).”

## CCc1nc2ccccc2n1-c1nc(N2CCOCC2)c2nc(OC3CN(C(=O)C(C)C)C3)n(C)c2n1 [Compound 122, 1-(3-(2-(2-ethyl-1H-benzo[d]imidazol-1-yl)-9-methyl-6-morpholino-9H-purin-8-yloxy)azetidin-1-yl)-2-methylpropan-1-one]
p110 delta
  Ki: 0.576 nM
p110 alpha
  Ki p110 alpha/ Ki p110 delta: 175
